Measured values as given in patent US20210330611A1, “THERAPY FOR NEUROLOGICAL DISEASES/DISORDERS” (priority 2020, published 2021).
Read-outs that look alike come from different tables or passages of the source.

Legend:
primary rat microglia [1] = test system: primary rat microglia
primary rat microglia [2] = test system: primary rat microglia; remark: listed apart in the source
primary rat microglia [3] = test: Cell toxicity (dead cells, size <150 μm2) in coated fibrin (cFib) assay; settings: read-out: Cell Toxicity IC50 (uM) [cFib assay];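 on Fibrin % cell toxicity: share of dead cells sized under 150 µm2 at 10 µM in fibrin-stimulated microglia HTS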
primary rat microglia [4] = test: Cell toxicity (dead cells, size <150 μm2) in LPS assay; settings: read-out: Cell Toxicity IC50 (uM) [LPS assay]

Substance | LPS % cell toxicity (primary rat microglia [1]; rat) | Fibrin % cell toxicity (primary rat microglia [2]; rat) | IC50 (primary rat microglia [3]) | IC50 (primary rat microglia [4]) | LPS % cell toxicity (primary rat microglia [1]) | Fibrin % cell toxicity (primary rat microglia [2])
Hexylene Glycol | 0% | 1% |  |  |  | 
Medroxyprogesterone [reference compound] | 0% | 2% | > 20 µM | 17 µM |  | 
Oxolamine Citrate |  |  |  |  | 0% | 1%
Spiramycin |  |  |  |  | 0% | 1%
